Inhibition data for four molecules are collected here from PubChem BioAssay AID630 (Emory University Molecular Libraries Screening Center, 2007).

Amino acid sequences for entries named in this document (tags omitted).
UniProt P84022, whole entry: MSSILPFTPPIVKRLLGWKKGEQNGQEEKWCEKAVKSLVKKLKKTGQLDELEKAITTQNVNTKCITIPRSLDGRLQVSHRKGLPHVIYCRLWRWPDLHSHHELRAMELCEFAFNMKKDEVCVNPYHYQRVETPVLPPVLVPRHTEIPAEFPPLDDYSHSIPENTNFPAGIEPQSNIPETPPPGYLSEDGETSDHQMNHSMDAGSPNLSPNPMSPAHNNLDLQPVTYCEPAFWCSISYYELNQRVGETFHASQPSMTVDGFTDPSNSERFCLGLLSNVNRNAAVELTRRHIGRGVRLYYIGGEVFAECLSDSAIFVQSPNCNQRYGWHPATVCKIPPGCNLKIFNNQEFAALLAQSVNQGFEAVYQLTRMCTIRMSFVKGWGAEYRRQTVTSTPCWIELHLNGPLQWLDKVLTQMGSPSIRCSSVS

Molecules are shown by their SMILES. This is a selection; strong and weak results do not stand in their true shares. Some tests of the compounds listed are not included; inactive here does not mean inactive elsewhere. The source made the active and inactive calls.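 The calls were made as follows: active = compounds that reduce the energy-transfer binding signal between the protein and its labelled peptide by more than half; inactive = the rest.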

This assay addresses Mothers against decapentaplegic homolog 3 (Homo sapiens) (UniProt P84022). Description: blockers of Smad3 binding to FoxH1 – biochemical, TR-FRET, primary screen (AID 630).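 Also: 0% = Smad3 plus labelled peptide maximal FRET and 100% = peptide-only background.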 Particulars: TR-FRET Smad3/Dy647-FoxH1 peptide binding, europium anti-His; at 25 µM; stronger effect = higher value. On the technique in general: TR-FRET usually uses a lanthanide donor and a delayed reading to cut background.
`CN(C)c1cccc(C(=O)NCC2(N(C)C)CCCCC2)c1`: the inhibition is inactive: 3.65%. With `C=C(C)C#C[C@@](O)(C(=O)OC1CCN(C)CC1)c1ccccc1` the figure was active: 82.2%. With `O=C(OC1CN2CCC1CC2)C(CO)(c1ccccc1)c1ccccc1` (centres undefined) the figure was inactive: -3.37%. As for `CN1CCC[C@H](OC(=O)[C@](O)(c2ccccc2)C2CCCC2)C1`, the figure is inactive: -4.93%.

By inhibition is commonly meant the change of the read-out against control, counted positive when it falls.
